Reference: patent US20240424107A1, “PREPARATION OF SITE-SPECIFIC POLYPEPTIDE CONJUGATES” (POSTECH RESEARCH AND BUSINESS DEVELOPMENT FOUNDATION, priority 2023, published 2024)

Tested on: SKBR-3 cells
Experiment: Real-time target cell killing, xCELLigence RTCA with effector PBMCs
Details: SKBR-3 with effector PBMCs, 20 nM, 10 nM, 5 nM, up to 96 h, FIGS. 12 to 14

Q: How did the “cytolysis over time / cytotoxic effect (in words)” value turn out when Trastuzumab-DNA-DM1 was run?
A: The value was “high cytolysis even at low concentrations”.
